Test results published in ChEMBL document CHEMBL2057208, “Benzoylbenzimidazole-based selective inhibitors targeting Cryptosporidium parvum and Toxoplasma gondii calcium-dependent protein kinase-1” (Bioorg Med Chem Lett, 2012).

What was measured:
[1] = Selectivity ratio of IC50 for human ABL to IC50 for Cryptosporidium parvum CDPK1
[2] = Selectivity ratio of IC50 for human ABL to IC50 for Toxoplasma gondii CDPK1
[3] = Selectivity ratio of IC50 for human SRC to IC50 for Cryptosporidium parvum CDPK1
[4] = Selectivity ratio of IC50 for human SRC to IC50 for Toxoplasma gondii CDPK1

Measured: Ratio IC50

CN1CCN(CCn2c(N)nc3ccc(C(=O)c4ccccc4)cc32)CC1
> 200: [1] | [2] | [3] | [4]
